# Experimental data: patent US20120014911A1, “Regulators of the Interferon-Alpha Receptor 1 (IFNAR1) Chain of the Interferon Receptor” (priority 2009, published 2012)
# Tested on: IFNAR1
# Assay: Cycloheximide chase of IFNAR1 degradation
# Format: cell-based, human
# Settings: U3A cells, VEGF
# Method: Immunoprecipitation and immunoblotting procedures are described elsewhere (Fuchs et al, 1999, Oncogene 18:2039-2046). Protein degradation was carried out by cycloheximide (CHX, used at 20 μg/ml) chase. IFNAR1 internalization assay was carried out using the Fluorescence-based assay as described elsewhere (Kumar et al., 2007, J Cell Biol 179:935-950). BAY 43-9006 was obtained as a gift. Recombinant human IFN-a2 (Roferon) was purchased from Roche. Other reagents or inhibitors were purchased from commercial vendors.
# Antibodies against Flag, GST and j3-actin (Sigma), HA (12CA, Roche), CK1α, PICD1/2 (PKCμ), PKD3 (PKCν), Tyk2, intracellular domain of hIFNAR1 and PKR, (Santa Cruz), anti-pan-phospho-tyrosine (4G10), phospho-Stat1 and Stat1 (Cell signaling), phospho-S710 of PKD2 (Biosource), PKD2 (Bethyl Laboratories), mIFNAR1 (Leinco) and ubiquitin (FK2, Biomol) were purchased. AA3, GB8 and EAl2 antibodies which recognize endogenous IFNAR1 (Goldman et al., 1999) and antibodies against IFNAR1 phosphorylated on Ser535 (pS535; (Kumar et al., 2004, J Biol Chem 279:46614-46620)) were described previously. Secondary antibodies conjugated to horseradish peroxidase were purchased from Chemicon and LI-COR. […] Immunoblot detection and quantification were carried out using the LI-COR's Odyssey Infrared Imaging System.
substance,measurement,value
VEGF,proteolytic turnover of Flag-IFNAR1,accelerated
